Data on one compound can be found in PubChem BioAssay AID540279 (National Center for Advancing Translational Sciences (NCATS), 2011).

The chains behind the UniProt entries cited, without tags or fusion partners. Where a name states a change or a piece, a line headed by the entry shows the natural chain unless it says otherwise.
UniProt Q9Y468: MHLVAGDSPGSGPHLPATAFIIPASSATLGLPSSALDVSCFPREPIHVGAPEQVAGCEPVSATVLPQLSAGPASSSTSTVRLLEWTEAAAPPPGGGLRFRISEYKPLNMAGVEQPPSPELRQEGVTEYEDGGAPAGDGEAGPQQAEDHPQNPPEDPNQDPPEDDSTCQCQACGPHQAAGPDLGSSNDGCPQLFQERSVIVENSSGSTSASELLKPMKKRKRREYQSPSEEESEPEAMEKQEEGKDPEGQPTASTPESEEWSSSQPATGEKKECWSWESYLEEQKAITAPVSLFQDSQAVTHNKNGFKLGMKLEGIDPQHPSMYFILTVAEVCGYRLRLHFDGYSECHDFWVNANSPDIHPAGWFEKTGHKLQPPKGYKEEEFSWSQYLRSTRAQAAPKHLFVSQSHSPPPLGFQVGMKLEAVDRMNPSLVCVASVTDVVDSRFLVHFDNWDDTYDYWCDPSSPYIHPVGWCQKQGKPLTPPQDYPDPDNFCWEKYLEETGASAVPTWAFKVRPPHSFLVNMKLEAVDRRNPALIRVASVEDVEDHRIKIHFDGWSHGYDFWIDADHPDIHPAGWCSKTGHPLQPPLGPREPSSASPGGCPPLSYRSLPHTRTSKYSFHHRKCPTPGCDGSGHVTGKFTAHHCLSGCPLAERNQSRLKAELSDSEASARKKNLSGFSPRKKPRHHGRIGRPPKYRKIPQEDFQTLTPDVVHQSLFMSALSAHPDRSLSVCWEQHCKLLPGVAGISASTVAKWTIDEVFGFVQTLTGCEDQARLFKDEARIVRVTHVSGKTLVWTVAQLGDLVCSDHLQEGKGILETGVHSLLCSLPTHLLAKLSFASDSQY

Each structure is given as a SMILES string. The entries are a selection whose mix differs from that of the whole data set. Results filed as inconclusive are left out. Activity calls are given as the source filed them. Calls follow the shape of the dose curve; as a rule, active = well fitted inhibition curve with a large enough effect; inconclusive = small, poorly fitted or top-dose-only effect; inactive = flat fitted curve, though single readings scatter.

This experiment has as its target Lethal(3)malignant brain tumor-like protein 1 (Homo sapiens) (UniProt Q9Y468). In words: qHTS Assay for the Inhibitors of L3MBTL1: Hit Validation. Also: nearly all actives have a fitted effect of over 70% in size. As to conditions: L3MBTL1 methyl-lysine binding inhibition, biochemical qHTS. The source says:
The histone code is comprised of many post-translational modifications that occur mainly in histone tail peptides. The identity and location of these marks are read by a variety of histone binding proteins that are emerging as important regulators of cellular differentiation and development and are increasingly being implicated in numerous disease states. Small molecule probes that disrupt the interaction between histone binding proteins and chromatin would enable a systematic chemical biology study of proteins that read the histone code and could potentially reveal new targets for drug discovery. However, no such small molecules are known. This dearth of quality molecular probes can largely be attributed to the novelty of the target class and the lack of screening assays. This proposal details the development of the first high-throughput screening assay for the discovery of inhibitors of methyl-lysine binding proteins and how it can be used to initiate a full-scale discovery effort for antagonists of histone binding proteins. […]
To each well, 2 uL of L3MBTL1 protein (final 50 nM) and 1 uL biotinylated histone peptide monomethylated at Lys9 [b-AHA-H3(1-15)K9me1] […] Microplates were then be read on an EnVision multilabel plate reader using the 1,536 plate HTS AlphaScreen aperture (excitation time 80 ms, measurement time 240 ms).
Potency is read from the fitted curve at half-maximal effect.

`CCc1nc2c(n1)c1c(non1O)c1c2no[n+]1[O-]`: the Potency is active: 6.7 µM.
